Laboratory results reported in US20050180997A1, “Drug delivery system” (priority 2004, published 2005).

Assays:
Type in all cases: cell-based
SK-BR3 cells [1] = test: Uptake study of coumarin-6 labeled emulsions, confocal microscopy; settings: 37° C., 5, 15, 30 min
Description: SK-BR3 cells were incubated at 37° C. with either blank emulsion or immuno-emulsion labeled with coumarin-6, over different incubation times: 5, 15, 30 min.
Cells were washes with PBS three times successively and then were fixed and visualized with Zeiss Confocal Microscope.

SK-BR3 cells [2] = test: Binding of coumarin-6 labeled emulsions to fixed cells, confocal microscopy; settings: 1 hour incubation at room temperature, dilution 1:1000, fixed cells
Description: However, in order to visualize the blank emulsion also, the emulsions were labeled with lipophilic fluorescent probe coumarin-6 (Polyscience Inc, Warrington, Pa.) in a ratio of 1:1000 coumarin to Lipoid E80 in the oil phase (7).
Cells were fixed on cover-slips, non-specific binding was blocked with 5% BSA. Incubation over 1 h with the labeled blank emulsion and immuno-emulsion (final dilution of 1:1000) was carried out at room temperature.
The cells were washed three times successively with PBS and then observed using Confocal microscope. A qualitative significant difference in binding to SK-BR3 cells between blank emulsion and the immuno-emulsion is observed as reflected by the difference in the intensity of the fluorescence.

SK-BR3 cells [3] = test: FACS binding of immuno-emulsion versus free trastuzumab; settings: 1 hour
Description: For confirmation purposes, additional studies were performed using FACS analysis (Fluorescent activated cell sorting analysis). […] The cells were washed with PBS three times successively and then FITC-conjugated secondary antibody was added (in a final dilution of 1:50). Cells were washed again with PBS and then were analyzed by FACS.

In the case of “immuno-emulsion: cationic emulsion containing N-(1-stearyl)-maleimide cross-linker conjugated to thiolated trastuzumab”, the “binding to cells in uptake study (qualitative)” value (SK-BR3 cells [1]) is reported as “bound more strongly”, the “binding to SK-BR3 cells (fluorescence intensity, qualitative)” value (SK-BR3 cells [2]) is reported as “binds extensively” and the “affinity extent compared to the same quantity of the free antibodies” value (SK-BR3 cells [3]) is reported as “around 5%”.
